This passage reports inhibition results from PubChem BioAssay AID372 (MTDP, 2006).

In general, inhibition refers to the drop in the measured response relative to a control, in per cent.

The list shows a part of the results, in another mix than the full data. Some of these compounds have results that are not shown, active ones among them. The source made the active and inactive calls. Rule as the data show it: active = inhibition above about 50%; inactive = the rest.

The experiment has as its target Gag-Pol polyprotein (Human immunodeficiency virus type 1 group M subtype B (isolate HXB2)) (UniProt P04585). In words: RNase H inhibition, HIV 1 Gag Pol polyprotein, FRET biochemical assay, screening (AID 372). The following applies: HIV-1 RT RNase H, FRET RNA/DNA substrate fluorescence; at 10 µM; stronger effect = higher value.
On to `COc1ccc(OC)c(C=C(C#N)C#N)c1`, for which the inhibition was inactive: 11%.

In the case of `N#CC(C#N)=Cc1ccc(Br)cc1`, the inhibition is inactive: 17%.
